Results: patent publication US11771773B2, “Pharmaceutical preparation containing polyethylene gylcol loxenatide and preparation method thereof” (Jiangsu Hansoh Pharmaceutical Group Co., Ltd., priority 2016, dated 2023)

Details: clinical results

## polyethylene glycol loxenatide
  half-life (t½): up to 80 hours
